Experimental data published in ChEMBL document CHEMBL5653609, “Ack1-mediated androgen receptor phosphorylation modulates radiation resistance in castration-resistant prostate cancer” (J Biol Chem, 2012).

Amino acid sequences for entries named in this document (tags omitted). A change or cut given only in a name is not applied to a line headed by its entry.
UniProt P42338: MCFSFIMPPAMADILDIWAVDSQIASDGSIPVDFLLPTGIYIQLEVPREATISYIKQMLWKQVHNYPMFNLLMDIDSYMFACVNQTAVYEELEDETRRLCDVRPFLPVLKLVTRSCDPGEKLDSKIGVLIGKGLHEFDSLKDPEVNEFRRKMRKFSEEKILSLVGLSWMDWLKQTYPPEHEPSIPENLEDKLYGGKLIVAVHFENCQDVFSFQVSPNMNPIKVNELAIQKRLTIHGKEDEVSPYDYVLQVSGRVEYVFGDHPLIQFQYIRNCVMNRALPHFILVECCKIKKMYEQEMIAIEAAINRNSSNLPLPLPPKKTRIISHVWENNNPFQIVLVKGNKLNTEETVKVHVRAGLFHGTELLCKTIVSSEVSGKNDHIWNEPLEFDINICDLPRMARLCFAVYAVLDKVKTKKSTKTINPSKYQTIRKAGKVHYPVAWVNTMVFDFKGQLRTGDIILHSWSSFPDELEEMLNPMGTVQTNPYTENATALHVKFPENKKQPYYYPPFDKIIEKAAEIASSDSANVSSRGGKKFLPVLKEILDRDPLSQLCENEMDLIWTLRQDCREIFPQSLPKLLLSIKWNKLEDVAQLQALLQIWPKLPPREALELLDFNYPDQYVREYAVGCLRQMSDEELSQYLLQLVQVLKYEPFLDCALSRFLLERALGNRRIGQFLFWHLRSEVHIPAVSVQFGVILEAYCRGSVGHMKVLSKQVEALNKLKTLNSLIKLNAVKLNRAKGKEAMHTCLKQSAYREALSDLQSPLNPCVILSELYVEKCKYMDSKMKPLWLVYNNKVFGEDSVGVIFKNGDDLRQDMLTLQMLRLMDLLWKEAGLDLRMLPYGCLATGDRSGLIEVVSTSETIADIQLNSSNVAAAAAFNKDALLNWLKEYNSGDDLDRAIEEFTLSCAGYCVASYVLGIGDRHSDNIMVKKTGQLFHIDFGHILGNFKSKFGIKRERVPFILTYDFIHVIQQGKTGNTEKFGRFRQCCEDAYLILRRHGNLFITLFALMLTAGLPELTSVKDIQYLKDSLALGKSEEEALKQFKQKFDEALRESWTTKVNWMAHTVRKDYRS

Target: Phosphatidylinositol 4,5-bisphosphate 3-kinase catalytic subunit beta isoform (Homo sapiens, UniProt P42338)
Assay: Inhibition of PI3Kbeta (unknown origin) in the presence of [33P]ATP by kinase hotspot assay

IC50: 363 nM
SMILES: O=c1cc(N2CCOCC2)oc2c(-c3ccccc3)cccc12 [LY-294002]
